Test results from patent US12146155B2, “Method for constructing human pluripotent stem cell-derived liver organoid having enhanced drug metabolic potential and liver organoid constructed by same method” (KOREA RESEARCH INSTITUTE OF CHEMICAL TECHNOLOGY, priority 2021, dated 2024).

Assays:
CYP450 = CYP450 activity of liver organoids differentiated with ferric citrate (LC-MS/MS); conditions: liver organoids cultured in suspension (S-HO FC); except for CYP1A2; measured for 24 hours
Protocol: The samples were centrifuged at 16,000 g for 10 minutes at 4° C. and the supernatant was applied to liquid chromatography-tandem mass spectrometry (LC-MS/MS). Data were normalized to protein concentration.

liver organoids = conditions: 20 μM in the medium composition of Tables 8 and 9; liver organoid differentiation for 15 days

## ferric citrate
CYP450
  CYP450 activity: greatly increased
Liver organoids
  cytotoxicity: did not exhibit cytotoxicity
